Source: publication PMC5502072, “Safety, tolerability and pharmacokinetics of the fibroblast growth factor receptor inhibitor AZD4547 in Japanese patients with advanced solid tumours: a Phase I study” (Investigational New Drugs, 2017)
Where “and” joins values, the source holds several entries; their conditions need not be identical. Equal values may be shown once. Entries after “also recorded” stand apart in the source; their conditions may differ.

Assay: Safety and tolerability (AEs by CTCAE v4.0, DLTs, laboratory, ECG/ECHO, ophthalmic) in Phase I study NCT01213160
Type: in vivo, human
Method: A ‘rolling six’ design was used, with a minimum of three evaluable patients per cohort. If one patient experienced a dose-limiting toxicity (DLT), additional patients were enrolled up to a maximum of six evaluable patients. DLTs were evaluated during the washout period and the first 21-day treatment schedule. […] If two or more evaluable patients experienced a DLT, this dosing level was considered as non-tolerable. It was planned that the maximum tolerated dose (MTD) would be defined either as the dosing level below the non-tolerated dose or such that a dose between the non-tolerated dose and the last tolerated dose may be investigated. Patients who tolerated AZD4547 treatment and received clinical benefit were permitted to continue treatment until they experienced progressive disease or withdrew consent.
Safety and tolerability were assessed during study treatment and until 28 days after the final dose. Adverse events (AEs) were evaluated according to CTCAE (version 4.0), and dose interruptions and reductions were recorded. Laboratory findings and vital signs were analysed. Cardiac monitoring (echocardiogram [ECHO] and ECG) and ophthalmic assessments were also conducted.

In the case of AZD4547, the “Nausea, SAE grade ≥3 event” value (Part A, 160 mg qd (N = 15)) is reported as 0 (0) n (%), the “Neutropenia, CTCAE grade ≥3 event” value (Part A, 160 mg qd (N = 15)) is reported as 0 (0) n (%) and the “Patients with AE of any grade” value (Part A, 160 mg qd (N = 15)) is reported as 14 (93.3) n (%). The “Patients with CTCAE grade ≥3 event” value (Part A, 160 mg qd (N = 15)) was 0 (0) n (%), the “Patients with SAE grade ≥3 event” value (Part A, 160 mg qd (N = 15)) was 0 (0) n (%) and the “Pneumonia, CTCAE grade ≥3 event” value (Part A, 160 mg qd (N = 15)) was 0 (0) n (%). For the same substance, the “Stomatitis, AE of any grade” value (Part A, 160 mg qd (N = 15)) was 3 (20.0) n (%), the “Stomatitis, CTCAE grade ≥3 event” value (Part A, 160 mg qd (N = 15)) was 0 (0) n (%) and the “Stomatitis, SAE grade ≥3 event” value (Part A, 160 mg qd (N = 15)) was 0 (0) n (%). The “Vomiting, AE of any grade” value (Part A, 160 mg qd (N = 15)) was 2 (13.3) n (%), the “Discontinuation for AEs, patients” value (Part A, 80 mg bid) was 3 n and the “Patients with an AE of CTCAE grade ≥3” value (Part A, 80 mg bid) was 10.0%. For the same substance, the “SAEs deemed causally related to AZD4547 treatment” value (Part A, 80 mg bid) was “Only one SAE, decreased appetite and nausea”, the “Decreased appetite, patients” value (Part B) was 50.0% and the “Dry mouth, patients” value (Part B) was 50.0%. The “Dysgeusia, patients” value (Part B) was 75.0%, the “Hyperphosphataemia, patients” value (Part B) was 50.0% and the “Nausea, patients” value (Part B) was 50.0%. The “Patients with AEs leading to discontinuation” value (Part B) was “None of the patients”, the “Patients with SAEs” value (Part B) was 25.0% and the “Patients with an AE of CTCAE grade ≥3” value (Part B) was 75.0%. The “Patients with dose interruption as a result of an AE” value (Part B) was 25.0%, the “Patients with dose reductions after reporting AEs” value (Part B) was 50.0% and the “Patients with treatment-related increases in blood phosphate levels” value (Part B) was 50.0%. For the same substance, the “Relatedness of CTCAE grade ≥3 AEs to treatment” value (Part B) was “not deemed to be treatment related”, the “Stomatitis, patients” value (Part B) was 50.0% and the “Decreased appetite, AE of any grade” value (Part B, 80 mg bid (N = 4)) was 2 (50.0) n (%). For the same substance, the “Decreased appetite, CTCAE grade ≥3 event (first line, r20)” value (Part B, 80 mg bid (N = 4)) was 2 (50.0) n (%), the “Decreased appetite, CTCAE grade ≥3 event (second line, r24)” value (Part B, 80 mg bid (N = 4)) was 0 (0) n (%) and the “Decreased appetite, SAE grade ≥3 event” value (Part B, 80 mg bid (N = 4)) was 1 (25.0) n (%). The “Detachment of retinal pigment epithelium, AE of any grade” value (Part B, 80 mg bid (N = 4)) was 1 (25.0) n (%), the “Diarrhoea, AE of any grade” value (Part B, 80 mg bid (N = 4)) was 1 (25.0) n (%) and the “Dry mouth, AE of any grade” value (Part B, 80 mg bid (N = 4)) was 2 (50.0) n (%). The “Dry skin, AE of any grade” value (Part B, 80 mg bid (N = 4)) was 0 (0) n (%), the “Dysgeusia, AE of any grade” value (Part B, 80 mg bid (N = 4)) was 3 (75.0) n (%) and the “Hyperphosphataemia, AE of any grade” value (Part B, 80 mg bid (N = 4)) was 2 (50.0) n (%). The “Hypoglycaemia, CTCAE grade ≥3 event” value (Part B, 80 mg bid (N = 4)) was 1 (25.0) n (%), the “Increased alanine aminotransferase, CTCAE grade ≥3 event” value (Part B, 80 mg bid (N = 4)) was 0 (0) n (%) and the “Malaise, AE of any grade” value (Part B, 80 mg bid (N = 4)) was 1 (25.0) n (%). For the same substance, the “Nausea, AE of any grade” value (Part B, 80 mg bid (N = 4)) was 2 (50.0) n (%), the “Nausea, CTCAE grade ≥3 event” value (Part B, 80 mg bid (N = 4)) was 0 (0) n (%) and the “Nausea, SAE grade ≥3 event” value (Part B, 80 mg bid (N = 4)) was 0 (0) n (%). The “Neutropenia, CTCAE grade ≥3 event” value (Part B, 80 mg bid (N = 4)) was 1 (25.0) n (%), the “Patients with AE of any grade” value (Part B, 80 mg bid (N = 4)) was 4 (100) n (%) and the “Patients with CTCAE grade ≥3 event” value (Part B, 80 mg bid (N = 4)) was 3 (75.0) n (%). The “Patients with SAE grade ≥3 event” value (Part B, 80 mg bid (N = 4)) was 1 (25.0) n (%), the “Pneumonia, CTCAE grade ≥3 event” value (Part B, 80 mg bid (N = 4)) was 1 (25.0) n (%) and the “Stomatitis, AE of any grade” value (Part B, 80 mg bid (N = 4)) was 2 (50.0) n (%). For the same substance, the “Stomatitis, CTCAE grade ≥3 event” value (Part B, 80 mg bid (N = 4)) was 0 (0) n (%), the “Stomatitis, SAE grade ≥3 event” value (Part B, 80 mg bid (N = 4)) was 0 (0) n (%) and the “Vomiting, AE of any grade” value (Part B, 80 mg bid (N = 4)) was 1 (25.0) n (%). For the same substance, the “Dose-limiting toxicities (DLTs)” value (Part B, RD of 80 mg bid) was “No DLTs were observed”, the “Decreased appetite, CTCAE grade ≥3 event (first line, r20)” value (Total Part A (N = 30)) was 1 (3.3) n (%) and the “Decreased appetite, CTCAE grade ≥3 event (second line, r24)” value (Total Part A (N = 30)) was 1 (3.3) n (%). The “Decreased appetite, SAE grade ≥3 event” value (Total Part A (N = 30)) was 1 (3.3) n (%), the “Detachment of retinal pigment epithelium, AE of any grade” value (Total Part A (N = 30)) was 7 (23.3) n (%) and the “Diarrhoea, AE of any grade” value (Total Part A (N = 30)) was 12 (40.0) n (%). For the same substance, the “Dry mouth, AE of any grade” value (Total Part A (N = 30)) was 10 (33.3) n (%), the “Dry skin, AE of any grade” value (Total Part A (N = 30)) was 9 (30.0) n (%) and the “Dysgeusia, AE of any grade” value (Total Part A (N = 30)) was 14 (46.7) n (%). The “Hyperphosphataemia, AE of any grade” value (Total Part A (N = 30)) was 11 (36.7) n (%), the “Hypoglycaemia, CTCAE grade ≥3 event” value (Total Part A (N = 30)) was 1 (3.3) n (%) and the “Increased alanine aminotransferase, CTCAE grade ≥3 event” value (Total Part A (N = 30)) was 1 (3.3) n (%). The “Malaise, AE of any grade” value (Total Part A (N = 30)) was 6 (20.0) n (%), the “Nausea, AE of any grade” value (Total Part A (N = 30)) was 8 (26.7) n (%) and the “Nausea, CTCAE grade ≥3 event” value (Total Part A (N = 30)) was 2 (6.7) n (%). The “Nausea, SAE grade ≥3 event” value (Total Part A (N = 30)) was 1 (3.3) n (%), the “Neutropenia, CTCAE grade ≥3 event” value (Total Part A (N = 30)) was 2 (6.7) n (%) and the “Patients with CTCAE grade ≥3 event” value (Total Part A (N = 30)) was 3 (10.0) n (%). The “Patients with SAE grade ≥3 event” value (Total Part A (N = 30)) was 2 (6.7) n (%), the “Stomatitis, AE of any grade” value (Total Part A (N = 30)) was 12 (40.0) n (%) and the “Stomatitis, CTCAE grade ≥3 event” value (Total Part A (N = 30)) was 1 (3.3) n (%). For the same substance, the “Stomatitis, SAE grade ≥3 event” value (Total Part A (N = 30)) was 1 (3.3) n (%), the “Vomiting, AE of any grade” value (Total Part A (N = 30)) was 6 (20.0) n (%) and the “Dose-limiting toxicities (DLTs)” value (across the four cohorts (40, 80, 120 mg bid; 160 mg qd)) was “No dose-limiting toxicities were observed; also recorded: No DLTs were observed; also recorded: no DLTs were reported”. The “Diarrhoea, AE any grade, patients” value (all patients (Parts A and B)) was 38%, the “Dry mouth, AE any grade, patients” value (all patients (Parts A and B)) was 35% and the “Dysgeusia, AE any grade, patients” value (all patients (Parts A and B)) was 50%. For the same substance, the “Hyperphosphataemia, AE any grade, patients” value (all patients (Parts A and B)) was 38%, the “Stomatitis, AE any grade, patients” value (all patients (Parts A and B)) was 41% and the “Grade of phosphate-related events” value (all phosphate-related events) was ≤ 3 CTCAE grade. For the same substance, the Tolerability (expansion phase, RD of 80 mg bid, FGFR-amplified tumours) was “well tolerated”, the Cardiac toxicity (in vivo) was “no significant cardiac toxicity was reported” and the “Changes in vital or physical signs” value (in vivo) was “No clinically relevant changes”. For the same substance, the “Patients with absolute LVEF value of <55%” value (in vivo) was “three patients”, the “Patients with decrease in LVEF of ≥10 percentage points” value (in vivo) was “Three patients” and the “Severity and reversibility of AEs” value (in vivo) was “generally mild to moderate and reversible upon withdrawal of treatment”. For the same substance, the “Transaminases and blood creatinine” value (mainly a one-grade shift) was “A trend in mean-value increase”, the “Death during study period, relation to treatment” value (one death, 160 mg qd, following disease progression) was “not causally related to AZD4547 treatment” and the “Abnormal ECG with treatment” value (one patient (120 mg bid) with normal ECG at baseline) was “not considered to be clinically relevant”. The “Retinal events leading to study-drug discontinuation, patients” value (overall (7/34)) was 20.5%, the “Patients with AEs considered causally related to AZD4547” value (overall (30/34)) was 88.2% and the “Decreased appetite, grade ≥3 AE, patients” value (overall (N = 34)) was 8.8%. The “Nausea, grade ≥3 AE, patients” value (overall (N = 34)) was 5.8% and the “Neutropenia, grade ≥3 AE, patients” value (overall (N = 34)) was 9% and 8.8%.
